From US20150087613A1, “Inhibition of Opioid Antinociceptive Tolerance and Withdrawal in Nociceptive Pain Therapy” (Saint Louis University, priority 2013, published 2015)

Target: T1, A3AR (Mus musculus, UniProt Q61618)
T1 construct: expressed in transfected cells
T1 sequence (Q61618 1-319): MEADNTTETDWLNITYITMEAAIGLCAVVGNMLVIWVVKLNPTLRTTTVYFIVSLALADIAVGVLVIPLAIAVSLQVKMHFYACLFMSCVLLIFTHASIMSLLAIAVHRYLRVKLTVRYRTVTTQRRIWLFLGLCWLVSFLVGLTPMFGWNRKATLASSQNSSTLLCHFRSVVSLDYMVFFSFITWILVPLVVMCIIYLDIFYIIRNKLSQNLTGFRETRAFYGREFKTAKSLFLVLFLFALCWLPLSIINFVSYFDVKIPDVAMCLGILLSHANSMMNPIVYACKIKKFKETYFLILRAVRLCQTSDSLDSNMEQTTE
Assay: Radioligand binding, membranes of HEK293 cells stably expressing mA3AR
Conditions: species m; n 3-4; read-out: affinity (KV nM) A3

## O[C@@H]1[C@H](O)[C@@H]2C[C@@H]2[C@H]1n1cnc2c(NCCc3ccccc3)nc(C#Cc3ccccc3)nc21 [Compound 14]
  Ki: 480 ± 90 nM
